Some compounds may have been tested in ways that are not shown here.
How the values were obtained:
[1] = system: thermostable variant of hCA II ('5X' mutant, M5X); assay: CO2 absorption rate in stirred cell, alkanolamine solution with 5X CA (M5X) enzyme; settings: for kOV: 298 K
[2] = Second-order kinetic rate constant of the reaction between alkanolamine and CO2 (no enzyme); format: physicochemical

For `OCCN(CCO)CCO`, the “observed kOV” value ([1]; 100 mg/L M5X, aqueous amine, concentrations studied) was 100 to 120 s⁻¹, the kOV ([1]; alkanolamine concentration 1.0 kmol m^−3, M5X 50 mg/L) was 82 s⁻¹ and the kOV ([1]; alkanolamine concentration 1.0 kmol m^−3, M5X 100 mg/L) was 108 s⁻¹. The kOV ([1]; alkanolamine concentration 1.0 kmol m^−3, M5X 400 mg/L) was 226 s⁻¹, the kOV ([1]; alkanolamine concentration 2.0 kmol m^−3, M5X 50 mg/L) was 73 s⁻¹ and the kOV ([1]; alkanolamine concentration 2.0 kmol m^−3, M5X 100 mg/L) was 115 s⁻¹. The kOV ([1]; alkanolamine concentration 2.0 kmol m^−3, M5X 200 mg/L) was 153 s⁻¹, the kOV ([1]; alkanolamine concentration 2.0 kmol m^−3, M5X 400 mg/L) was 185 s⁻¹ and the “k2, second-order kinetic rate constant of the reaction between amine and CO2” value (from here on “k2, second-order kinetic rate constant”) ([2]; amine concentration 1.0 kmol m^−3) was 2.3 m^3 kmol^−1 s^−1. For the same compound, the “k2, second-order kinetic rate constant” value ([2]; amine concentration 2.0 kmol m^−3) was 2.7 m^3 kmol^−1 s^−1 and the “k2, second-order kinetic rate constant” value ([2]; amine concentration 4.0 kmol m^−3) was 1.8 m^3 kmol^−1 s^−1.

From patent US20140106440A1, “ENHANCED ENZYMATIC CO2 CAPTURE TECHNIQUES ACCORDING TO SOLUTION PKA, TEMPERATURE AND/OR ENZYME CHARACTER” (CO2 SOLUTIONS INC., priority 2011, published 2014)
